Measured values as given in ChEMBL document CHEMBL2429711, “[(11)C]MK-4232: The First Positron Emission Tomography Tracer for the Calcitonin Gene-Related Peptide Receptor” (ACS Med Chem Lett, 2013).

By UniProt entry, the sequences of proteins in these tests, tags left out.
UniProt P08183, whole entry: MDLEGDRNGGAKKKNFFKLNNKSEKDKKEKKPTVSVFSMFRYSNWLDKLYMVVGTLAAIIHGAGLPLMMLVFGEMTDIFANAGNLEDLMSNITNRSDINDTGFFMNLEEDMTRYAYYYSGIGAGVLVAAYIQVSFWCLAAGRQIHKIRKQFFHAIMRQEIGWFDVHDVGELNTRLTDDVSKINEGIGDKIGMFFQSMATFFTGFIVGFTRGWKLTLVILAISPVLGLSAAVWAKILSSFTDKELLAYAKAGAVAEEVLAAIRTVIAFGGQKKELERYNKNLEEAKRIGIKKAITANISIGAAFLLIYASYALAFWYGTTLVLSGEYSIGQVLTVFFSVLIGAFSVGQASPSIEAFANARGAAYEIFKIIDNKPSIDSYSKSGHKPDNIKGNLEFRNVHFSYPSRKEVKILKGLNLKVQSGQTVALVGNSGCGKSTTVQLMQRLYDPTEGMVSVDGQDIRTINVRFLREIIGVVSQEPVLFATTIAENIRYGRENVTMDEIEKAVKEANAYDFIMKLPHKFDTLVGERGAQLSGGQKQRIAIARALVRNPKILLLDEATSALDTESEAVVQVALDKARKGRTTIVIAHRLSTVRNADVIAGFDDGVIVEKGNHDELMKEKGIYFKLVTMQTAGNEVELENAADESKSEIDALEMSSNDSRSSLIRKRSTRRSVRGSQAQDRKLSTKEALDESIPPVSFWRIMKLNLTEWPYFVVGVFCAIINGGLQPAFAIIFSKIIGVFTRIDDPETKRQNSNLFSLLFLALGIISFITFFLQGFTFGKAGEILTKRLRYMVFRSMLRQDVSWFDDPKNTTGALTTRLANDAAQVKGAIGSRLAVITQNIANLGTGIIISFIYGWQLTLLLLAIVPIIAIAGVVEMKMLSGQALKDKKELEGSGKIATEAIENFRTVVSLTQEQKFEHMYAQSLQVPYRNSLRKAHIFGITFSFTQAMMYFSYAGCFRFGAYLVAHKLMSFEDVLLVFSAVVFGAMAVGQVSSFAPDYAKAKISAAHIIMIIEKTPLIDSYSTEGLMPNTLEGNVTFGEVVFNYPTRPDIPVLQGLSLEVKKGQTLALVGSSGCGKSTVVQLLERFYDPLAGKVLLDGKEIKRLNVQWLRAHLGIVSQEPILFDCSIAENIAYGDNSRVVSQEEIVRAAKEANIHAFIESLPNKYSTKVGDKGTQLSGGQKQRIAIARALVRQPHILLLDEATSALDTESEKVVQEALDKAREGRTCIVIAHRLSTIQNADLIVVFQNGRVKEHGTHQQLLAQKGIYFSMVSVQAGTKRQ

How the values were obtained:
MDR1 (ABCB1) = MDR1 (ABCB1) (Homo sapiens, UniProt P08183); assay: Efflux ratio of human MDR1-mediated drug transport from basolateral to apical side over apical to basolateral side in pig LLC cells expressing human MDR1 at 5 uM; assay type: ADME, cell-based; conditions: LLC-PK1
In short: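 P-gp transport ratio BA/AB in LLC-MDR1 cells, test compound at 5 μM.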

[1] = test system: CGRP receptor (Macaca mulatta); assay: Ratio of drug uptake in iv dosed rhesus monkey cerebellum to drug uptake in iv dosed rhesus monkey white matter; conditions: in vivo

- efflux ratio at 5 µM (MDR1 (ABCB1)): 8.9
- Ratio [1]: 1.4
Structure (SMILES): CN1C[C@@H](c2cc(F)cc(F)c2)N(CC(=O)Nc2ccc3c(c2)C[C@@]2(C3)C(=O)Nc3ncccc32)C(=O)C1(C)C
